Ab-14 heavy chain CDR variants: yeast mating affinities

Data: MIT Lincoln Laboratory AlphaSeq set, Li et al. 2023, doi:10.1038/s41467-023-39022-2, as distributed in FLAb.

Target: peptide PDVDLGDISGINAS, taken from heptad repeat 2 (HR2) of SARS-CoV-2 spike.

Parent scFv Ab-14: VH joined to VL by a (GGGGS)3 linker. Changes lie in the heavy chain CDRs alone.
VH: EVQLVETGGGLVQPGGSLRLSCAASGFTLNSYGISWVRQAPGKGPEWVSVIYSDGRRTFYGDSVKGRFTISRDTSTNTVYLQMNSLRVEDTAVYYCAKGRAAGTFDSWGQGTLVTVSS
VL: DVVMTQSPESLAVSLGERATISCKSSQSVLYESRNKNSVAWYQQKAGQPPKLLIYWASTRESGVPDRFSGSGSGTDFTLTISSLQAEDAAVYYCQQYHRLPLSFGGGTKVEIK

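The starting antibody came from a phage panning campaign against this peptide. Designed CDR sequences, proposed from the first random library and measured here. Group labels follow the data file (Ctrl: baseline library sampled from a position-specific scoring matrix, with some repeated check sequences; Rand: our label for a block that the file lists under HC and that is probably the random mutants of the ten best first-round binders; En: ensemble of fine-tuned language models; GP: Gaussian process model; GPLM: also part of the Gaussian process libraries; HC: hill climbing; Gen: genetic algorithm; Gibbs: Gibbs sampling; a sequence that several methods proposed may carry one label only). Affinity was read by AlphaSeq, a pooled yeast mating assay with surface-displayed partners. Mating (16 h, 30 °C) was followed by selection of diploids and sequencing of their barcodes. Read counts were normalised to the haploid input and turned into Kd by a linear fit to BCL2-family pairs of known affinity, for each replicate. The assay was run in six technical replicates.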

Each variant is given by its three heavy chain CDRs, as the data file delimits them; those of the parent are GFTLNSYGIS, VIYSDGRRTFYGDSVK, GRAAGTFDS.
Values are log10 of the apparent Kd in nM; lower means stronger binding.
A mean of the replicates is given; it leaves out those without a signal.
"nd" means that the variant was in the library but no mating with the target was seen in any replicate; the authors take this as a sign of poor binding, and no number exists.

CDR-H1 | CDR-H2 | CDR-H3 | group | mean, log10 nM | seen in | empty controls
GFDLNEYGIS | VIYSDGRRTMYGDSVK | GRQAGTFDS | GP_Gibbs | 0.68 | 6 of 6 | 0 of 18
GFTLNSYTIS | VIEADGRRTFYGDSVK | GTAAGGNKY | Rand | nd | 0 of 6 | 1 of 18
GFSLDEMGIS | VIYADGQRSFYQASVK | GVNSGTVFV | En_Gibbs | nd | 0 of 6 | 0 of 18
GFWLNSYGIS | VIYFDGWRTFYGDSVK | GRAAGAFDS | Ctrl | 1.51 | 1 of 6 | 0 of 18
GDQLDEYGIS | VIYADGMRTMYADSFK | GMKSVNIGD | En_Gibbs | nd | 0 of 6 | 0 of 18
GFSLDEYGIS | VIYADGLRSKYADKVK | GELNQKGDT | En_Gibbs | nd | 0 of 6 | 1 of 18
GFDLNEYGIS | VIYADGVRTAYLDSVK | GEAAGTFDS | En_HC | -0.43 | 6 of 6 | 0 of 18
GFTLDSYGIS | VIYSDGRRTFYGDSVK | GIAAGTFDS | Ctrl | 0.26 | 6 of 6 | 0 of 18
GFSLNSYGIS | VIYSDGRRTFYGDSVK | GREAGTFDN | GPLM_Gibbs | 0.44 | 6 of 6 | 0 of 18
GFDLNTYGIS | VIYSDGRRTAYGDSVK | GRTAGTFDS | GP_Gen | 0.60 | 6 of 6 | 0 of 18
GFDLNSYGIS | VIYSDGRRTFYGDSVK | GQAAGHFNS | GP_HC | 1.36 | 5 of 6 | 0 of 18
GFNLDEYGVS | VIYADGQRTYYAQDVK | GKTGDHLFI | En_Gibbs | nd | 0 of 6 | 0 of 18
GFWLNEYGIS | VIYSDGRRTFYADSVK | GRNAGTFDS | GPLM_Gibbs | 0.25 | 6 of 6 | 0 of 18
GFTLNSYGIS | VIYSDGRRTFYGDSVK | GMAAGCFDL | Ctrl | nd | 0 of 6 | 0 of 18
GESLDSYGIS | VIYADGMRTSYDNSVK | GAWAGTFDE | En_Gibbs | 2.71 | 2 of 6 | 1 of 18
GFDLNSYGIS | VIYSDGRRTFYGDSVK | GRAAGCFNS | GPLM_HC | -0.16 | 6 of 6 | 0 of 18
GFDLNEYGIS | VIYADGKRTAYADSVK | GKVAGTFNV | En_HC | -0.63 | 6 of 6 | 0 of 18
EFDLNEYGIS | VIYADGHRSFYADTVK | GQVAGIFDM | En_Gibbs | 1.45 | 6 of 6 | 0 of 18
GFDLNSYGIS | VIYSDGRRTFYGDSVK | GRAAWTFDS | GPLM_HC | 2.90 | 2 of 6 | 1 of 18
GFTLNSYGIS | VIYADGRRTFYGDSVK | GTAAGTFDY | GP_HC | 0.69 | 5 of 6 | 0 of 18
GFTLNSYGIS | VIYSDGRRTFYGDSVK | GRAELTFDS | Ctrl | nd | 0 of 6 | 0 of 18
GFNLNEYGIS | VIYADGMRTAYADSVK | GEVAGTFDV | En_Gen | 0.63 | 5 of 6 | 0 of 18
GFDLNEYGIS | VIYADGMRTAYADSVK | GQNAGTFVV | En_Gen | 1.81 | 1 of 6 | 2 of 18
GFTLNDYGIS | VIYSGGRRTFYGDSVK | GRAALTFIS | Rand | nd | 0 of 6 | 0 of 18
GFDLEDYGIS | VIYADGRRTFYADSVK | GNVAGTFDI | En_HC | -0.54 | 6 of 6 | 0 of 18
GFTLNSYGIS | VIYADGRRTFYGDSVK | GEAAGTFKK | GP_HC | 2.35 | 4 of 6 | 0 of 18
GFTLNEYGIS | VIYSDGRRTFYGDAVK | GRAAGTFDS | Ctrl | 0.12 | 6 of 6 | 1 of 18
GFQLNSYGIS | VIYSDGRRTFYGDSVK | GEAAGTFDR | GP_Gibbs | 1.03 | 1 of 6 | 0 of 18
GFDLNEYGIS | VIYADGRRTFYSDSVK | GKVAGTFDK | En_HC | -0.25 | 6 of 6 | 0 of 18
GFDLNEYGIS | VIYADGVRTAYADDVK | GSNAGTFDV | En_Gen | -0.52 | 6 of 6 | 0 of 18
GFDLNEYGIS | VIYADGKRTFYADSVK | GTAAGTFDQ | En_HC | 0.80 | 6 of 6 | 0 of 18
KFTLDSYGIS | VIFSDGRRVFYGDSVK | GRAAGHFDK | Ctrl | nd | 0 of 6 | 0 of 18

Second part, the sequence after the result:

mean, log10 nM | seen in | empty controls | CDR-H1 | CDR-H2 | CDR-H3 | group
0.25 | 6 of 6 | 0 of 18 | GFDLNEYGIS | VIYADGVRTFYSDSVK | GNVGGSFDV | En_HC
nd | 0 of 6 | 0 of 18 | GFDLNEQGIS | VIYADGRRRATINQVK | GSNSFTFDL | En_Gibbs
nd | 0 of 6 | 0 of 18 | GFDFQEYGIS | VIYADGLRTAYANSVK | GGSNALTTV | En_Gibbs
2.27 | 2 of 6 | 0 of 18 | GFTLNSYGIS | VIYSDGQRTFYNDSVK | GEQAGTFDS | Ctrl
-0.80 | 6 of 6 | 0 of 18 | GFDLNEYGIS | VIYADGMRTAYSDSVK | GNTAGTFDQ | En_Gen
nd | 0 of 6 | 0 of 18 | GFTLNSYGIS | VIYSDGRRTFYGDSQK | GRNAGTFDS | Ctrl
nd | 0 of 6 | 0 of 18 | GFTLNEYGIS | VIYSDGRRTFYGQSVK | GRAAVTFDV | GPLM_HC
nd | 0 of 6 | 0 of 18 | GFTLNEYGIS | VIYSDGRRTFYGDSTK | GRAAVTHDQ | Rand
0.21 | 6 of 6 | 1 of 18 | GESLESYGIS | VIYADGMRTSYTNSVK | GVWAGTFMQ | En_Gibbs
nd | 0 of 6 | 0 of 18 | GKDIDEYGIS | VIYADGRRTFVIDSVK | GINSDFVLA | En_Gibbs
1.96 | 3 of 6 | 0 of 18 | GFTLNSYGIS | VIYSDGIRTFYGDSVK | GKAAGTFDS | Ctrl
nd | 0 of 6 | 0 of 18 | GFDLEEYGIS | VIYADGSRTSYQESVK | GLVGGMLDM | En_Gibbs
nd | 0 of 6 | 0 of 18 | GDDLEAYGIS | VIYADGMRTYYSDAVK | GNVNGTFFD | En_Gibbs
nd | 0 of 6 | 0 of 18 | GFDINEYGIS | VIYADGSRQAYADNVK | GFWGCVLYV | En_Gibbs
1.55 | 3 of 6 | 0 of 18 | GFTLNSYGIS | VIYSDGLRTFYIDSVK | GRTAGTFDS | GPLM_Gibbs
nd | 0 of 6 | 0 of 18 | GFTLNSYGIS | VIYADGRRVFYGDSVK | GRAYATFDS | Ctrl
-0.23 | 6 of 6 | 0 of 18 | GFDLNEYGIS | VIYADGQRTFYADSVK | GNNAGTFDI | En_Gen
nd | 0 of 6 | 0 of 18 | GFTLNDYGIS | VIYSDGRRTFYGDSVK | GRAKLTFIS | Rand
0.95 | 6 of 6 | 0 of 18 | GFILGEYGIS | VIYADGERTMYSNRVK | GNEAGTFDF | En_Gibbs
-0.20 | 6 of 6 | 0 of 18 | GFSLNDYGIS | VIYSDGRRTFYGDRVK | GRTAGTFDS | GPLM_Gen
nd | 0 of 6 | 0 of 18 | GQDINEYGIS | VIYADGRRKAYVQQVK | GQNLGDVEV | En_Gibbs
nd | 0 of 6 | 0 of 18 | GFNMDEYGIS | VIYADGRRTVYTNSVK | GVVTWSGKV | En_Gibbs
-0.67 | 6 of 6 | 1 of 18 | GFDLNEYGIS | VIYADGRRTFYVDSVK | GQVAGTFNV | En_HC
0.38 | 6 of 6 | 0 of 18 | GFSLNDYGIS | VIYSDGRRTFYGDSVK | GRWAGTFDS | GPLM_Gen
nd | 0 of 6 | 0 of 18 | GETLNSYGIS | VDYADGRRTFYGDSVK | GRAQGTADS | Ctrl
-0.26 | 6 of 6 | 0 of 18 | GFKLNSYGIS | VIYSDGRRTFYKDSVK | GNEAGTFDS | GP_Gibbs
1.08 | 6 of 6 | 1 of 18 | GFWLNDYGIS | VIYSDGRRTFYKDSVK | GRAAGTFDS | GP_HC
0.49 | 1 of 6 | 0 of 18 | GFQLNNYGIS | VIYSDGRRTFYGDQVK | GRTAGTFDS | GP_Gibbs
1.34 | 6 of 6 | 0 of 18 | GFTLNSYGIS | VIYSDGKRTFYGDSVK | GRTAGTFDQ | GP_Gibbs
-0.63 | 6 of 6 | 0 of 18 | GFDLNEYGIS | VIYADGRRTAYSDSVK | GQNAGTFDI | En_Gen
-0.54 | 6 of 6 | 2 of 18 | GFNLDEYGIS | VIYADGRRTFYADDVK | GNVAGTFDV | En_HC
0.76 | 6 of 6 | 1 of 18 | GFDLNEYGIS | VIYADGRRTFYSDSVK | GEMGGTFDA | En_HC
1.87 | 6 of 6 | 1 of 18 | GFTLNSYGIQ | VIYADGRRTFYHDSVK | GTAAGTFDS | Ctrl

The closing 7 entries, repeated:

CDR-H1 | CDR-H2 | CDR-H3 | group | mean, log10 nM | seen in | empty controls
GFWLNDYGIS | VIYSDGRRTFYKDSVK | GRAAGTFDS | GP_HC | 1.08 | 6 of 6 | 1 of 18
GFQLNNYGIS | VIYSDGRRTFYGDQVK | GRTAGTFDS | GP_Gibbs | 0.49 | 1 of 6 | 0 of 18
GFTLNSYGIS | VIYSDGKRTFYGDSVK | GRTAGTFDQ | GP_Gibbs | 1.34 | 6 of 6 | 0 of 18
GFDLNEYGIS | VIYADGRRTAYSDSVK | GQNAGTFDI | En_Gen | -0.63 | 6 of 6 | 0 of 18
GFNLDEYGIS | VIYADGRRTFYADDVK | GNVAGTFDV | En_HC | -0.54 | 6 of 6 | 2 of 18
GFDLNEYGIS | VIYADGRRTFYSDSVK | GEMGGTFDA | En_HC | 0.76 | 6 of 6 | 1 of 18
GFTLNSYGIQ | VIYADGRRTFYHDSVK | GTAAGTFDS | Ctrl | 1.87 | 6 of 6 | 1 of 18

As a blank, each scFv also met three strains without target: over all heavy chain designs, 1% of these pairings were detected, typically at 2.08 and seldom below 0.84. The control count says in how many pairings with the empty strains this scFv gave a signal.
In the paper, a design with two or fewer of six values counts as a poor binder.
The parent sequence was in this pool as ten entries: three were never detected, three once, and four in most replicates, with averages from 0.34 to 2.37.
A sequence measured in both rounds can read differently, since the two assays cover different ranges.